Experimental findings from patent EP0759299B1, “Potentiation of serotonin response” (ELI LILLY AND COMPANY, priority 1995, dated 1997) are described below.

In this assay the test system is 5-HT. As to the kind of experiment: Microdialysis assay of monoamines in hypothalamus of conscious rats: 5-HT. In kind it is in vivo, Sprague-Dawley rats. To be noted: percent of baseline; for 5-HT (%): pindolol s.c. infusion 50 mg/kg/hr from 120 min, single animal; for % 5-HT: fluoxetine 10 mg/kg i.p. at 100 min, average, N=5. As for the experimental part:
Sprague-Dawley rats (Harlan or Charles River) weighing 270-300 grams were surgically implanted with microdialysis probes under chloral hydrate/pentobarbital anesthesia (170 and 36 mg/kg i.p. in 30% propylene glycol, 14% ethanol) (Perry and Fuller, Effect of fluoxetine on serotonin and dopamine concentration in rat hypothalamus after administration of fluoxetine plus L-5-hydroxytryptophan, Life Sci., 50, 1683-90 (1992)). A David Kopf stereotaxic instrument was used to implant the probe unilaterally in the hypothalamus at coordinates rostral -1.5 mm, lateral -1.3 mm, and ventral -9.0 mm (Paxinos and Watson, 1986). After a 48 hour recovery period, rats were placed in a large plastic bowl with a mounted liquid swivel system (CMA/120 system for freely moving animals, Bioanalytical Systems, West Lafayette, IN). Filtered artificial cerebrospinal fluid (CSF) (150 mM NaCl, 3.0 mM KCl, 1.7 mM CaCl2, and 0.9 mM MgCl2) was perfused through the probe at a rate of […]. The output dialysate line was fitted to a tenport HPLC valve with a 20 µl loop. At the end of each 30 minute sampling period, dialysate collected in the loop was injected on an analytical column (Spherisorb 3 µ ODS2, 2X150 mm, Keystone Scientific).
The method used to measure monoamines was as described by Perry and Fuller (1992). Briefly, dialysate collected in the 20 µl loop was assayed for 5-HT, NE and DA. The 20 µl injection went onto the column with a mobile phase which resolved NE, DA, and 5-HT: 75 mM potassium acetate, 0.5 mM ethylenediaminetetraacetic acid, 1.4 mM sodium octanesulfonic acid and 8% methanol, pH 4.9. The mobile phase for the amine column was delivered with a flow programmable pump at an initial flow rate of 0.2 ml/min increasing to 0.3 ml/min at 5 min then decreasing back to 0.2 ml/min at 26 min with a total run time of 30 min. Flow programming was used to elute the 5-HT within a 25 min time period. The electrochemical detector (EG&G, Model 400) for the amine column was set at a potential of 400 mV and a sensitivity of 0.2 nA/V. The data was collected and analyzed with a Hewlett-Packard HP1000 chromatography system which measured peak heights and calculated sample concentrations. Basal levels were measured for at least 90 minutes prior to drug administration.
Extracellular levels of the amines in microdialysates were calculated by comparing peak heights with those of 50 pmole standards. The mean value of the four samples immediately preceding drug administration served as the basal level for each experiment and data was converted to percent of basal. Paired t-tests were used to compare the mean of the basal values from the time point immediately preceding drug administration to those of each time point thereafter.

Regarding `CC(C)NCC(O)COc1cccc2[nH]ccc12` (racemic) [pindolol, 4-(2-hydroxy-3-isopropylaminopropoxy)-indole], the “5-HT (%)” value runs as follows: (Test 2, 150 min) 67.7%; (Test 2, 180 min) 64.7%; (Test 2, 210 min) 27.4%; (Test 2, 240 min) 18.8%.

Regarding `CNCCC(Oc1ccc(C(F)(F)F)cc1)c1ccccc1` (racemic) [fluoxetine, N-methyl-3-(p-trifluoromethylphenoxy)-3-phenylpropylamine], the “% 5-HT” value was determined as 115.3% (Test 3, 120 min); 129.0% (Test 3, 140 min); 163.6% (Test 3, 160 min); 101.6% (Test 3, 180 min); 141.5% (Test 3, 200 min); 158.2% (Test 3, 220 min). Besides, the “% 5-HT” value by setting is: (Test 3, 240 min) 155.7%; (Test 3, 260 min) 118.5%; (Test 3, 280 min) 167.3%; (Test 3, 300 min) 126.6%; (Test 3, 320 min) 187.7%; (Test 3, 340 min) 190.1%.
